Biological target: dopamine D3 receptor (Homo sapiens, UniProt P35462)
Settings: arylpiperazine-phthalimide compounds at 100 nM, [3H]-sulpiride, HEK-293 cells (Table 1)

By UniProt entry, the sequences of proteins in these tests, tags left out.
UniProt P35462, whole entry: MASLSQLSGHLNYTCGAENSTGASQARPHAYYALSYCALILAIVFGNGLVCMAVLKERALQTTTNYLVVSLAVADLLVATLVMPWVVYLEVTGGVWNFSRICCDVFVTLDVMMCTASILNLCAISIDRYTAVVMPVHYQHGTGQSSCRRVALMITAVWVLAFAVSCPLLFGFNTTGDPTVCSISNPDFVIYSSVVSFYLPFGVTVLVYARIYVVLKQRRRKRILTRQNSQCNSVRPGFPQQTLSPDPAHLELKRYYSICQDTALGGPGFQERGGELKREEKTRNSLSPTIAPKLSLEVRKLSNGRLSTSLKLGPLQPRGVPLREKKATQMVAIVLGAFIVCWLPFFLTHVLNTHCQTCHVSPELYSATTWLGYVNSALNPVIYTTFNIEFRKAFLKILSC

D3 Receptor Displacement (%): 65.4 ± 5.8%
Structure (SMILES): O=C1c2ccccc2C(=O)N1CCCCN1CCN(c2cccc(F)c2F)CC1 [Compound 3d, 2-(4-(4-(2,3-fluorophenyl)piperazin-1-yl)butyl)isoindoline-1,3-dione]
